This assay has as its system Rattus norvegicus. The experiment in a line: Effect on intestinal calcium transport in weanling Sprague-Dawley rat assessed as increase in ratio of serosal to mucosal calcium level at 780 pmol/day, ip administered as 4 consecutive daily doses measured 24 hrs after last dose. In kind it is functional.

Each structure is given as a SMILES string.

`C=C1/C(=C\C=C2/CCC[C@]3(C)[C@@H]([C@H](C)CCCC(C)(C)O)CC[C@@H]23)C[C@@H](O)C[C@@H]1O` [CALCITRIOL]: the Ratio was found to be 7.7.

Values taken from ChEMBL document CHEMBL3351472, “Synthesis and Biological Activity of 25-Hydroxy-2-methylene-vitamin D3 analogues monohydroxylated in the A-ring” (J Med Chem, 2014).
